One test has as its target T1, adenosine A2b receptor (Homo sapiens, UniProt P29275).
T1 sequence (P29275 1-332): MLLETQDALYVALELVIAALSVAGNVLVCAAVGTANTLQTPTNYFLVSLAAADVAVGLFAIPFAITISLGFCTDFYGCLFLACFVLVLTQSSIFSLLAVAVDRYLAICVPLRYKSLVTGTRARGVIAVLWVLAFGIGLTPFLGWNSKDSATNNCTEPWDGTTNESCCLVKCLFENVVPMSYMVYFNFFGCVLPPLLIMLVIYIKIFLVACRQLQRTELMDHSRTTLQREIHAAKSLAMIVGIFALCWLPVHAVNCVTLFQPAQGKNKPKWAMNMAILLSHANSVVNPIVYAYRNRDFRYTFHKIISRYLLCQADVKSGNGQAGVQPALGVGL
Nature of the test: Intracellular cAMP (cAMP-RIA) in CHO cells transfected with cDNA for the A2b receptor, agonist mode. Format: cell-based. The settings on record: based on control without substance. On the procedure: (§1) Cells of the permanent line CHO (Chinese Hamster Ovary) were stably transfected with cDNA for the adenosine receptor subtypes A1, A2a, A2b and A3. Binding of the substances to the A2a or A2b receptor subtypes was determined by measuring the intracellular cAMP concentration in these cells using a conventional radioimmunological assay (cAMP-RIA, IBL GmbH, Hamburg, Germany).
In the case of the action of the substances as agonists, binding of the substances is expressed in an increase of the intracellular cAMP concentration.
In the experiments below, the intracellular cAMP concentration in CHO cells which had been transfected with cDNA for the A2b receptor was determined. What is stated is the cAMP concentration in percent in all cells in a well of a microtiter plate, based on the control value obtained without any substances acting on the cells: […]

By UniProt entry, the sequences of proteins in these tests, tags left out.
UniProt P30542, whole entry: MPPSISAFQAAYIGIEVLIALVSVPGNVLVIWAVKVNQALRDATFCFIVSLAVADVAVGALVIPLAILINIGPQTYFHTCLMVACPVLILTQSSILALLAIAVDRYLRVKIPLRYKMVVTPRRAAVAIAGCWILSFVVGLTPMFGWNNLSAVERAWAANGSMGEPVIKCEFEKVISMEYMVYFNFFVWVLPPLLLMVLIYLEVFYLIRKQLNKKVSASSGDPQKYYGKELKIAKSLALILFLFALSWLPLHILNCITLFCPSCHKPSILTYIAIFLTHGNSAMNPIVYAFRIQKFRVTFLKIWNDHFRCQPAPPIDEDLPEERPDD

The target of a further test is adenosine A1 receptor (Homo sapiens, UniProt P30542). Nature of the test: Intracellular cAMP in CHO cells transfected with cDNA for the A1 receptor after prestimulation with forskolin. Format: cell-based. The settings on record: based on control prestimulated with 1 μM forskolin for 15 min (18% without forskolin). The method, then:
as §1
The adenosine receptors A1 and A3 are coupled to a Gi protein, i.e. stimulation of these receptors results in an inhibition of adenylate cyclase and thus a reduction of the intracellular cAMP level. To identify A1/A3 receptor agonists, the adenylate cyclase is stimulated using forskolin. However, additional stimulation of the A1/A3 receptors inhibits adenylate cyclase, so that it is possible to detect A1/A3 receptor agonists by a comparatively low concentration of cAMP in the cell.
In the following experiments, the intracellular cAMP concentration in CHO cells transfected with the cDNA for the A1 receptor was determined.

For `CCNC(=O)[C@H]1O[C@@H](n2cnc3c(N)ncnc32)[C@H](O)[C@@H]1O` [NECA, 5-N-ethylcarboxamido-adenosine, reference compound], the “Concentration of intracellular cAMP in percent” value on adenosine A2b receptor (10^-5 M) turned out to be 1263%; on adenosine A2b receptor (10^-6 M) it was 1226%; on adenosine A2b receptor (10^-7 M), 858%; at adenosine A2b receptor (10^-8 M) it was 340%; on adenosine A2b receptor (10^-9 M), 363%; on adenosine A1 receptor (10^-5 M), 28%. Also, the “Concentration of intracellular cAMP in percent” value at adenosine A1 receptor (10^-6 M) and at adenosine A1 receptor (10^-7 M) was 24% throughout.

The record behind these values is patent publication US7504421B2, “Substituted 2-thio-3,5-dicyano-4-aryl-6-aminopyridines and their use” (priority 1999, dated 2009).
